Active and inactive are the calls of the source. No rule for the calls is given here. Where only a bound is given, the exact number is not on record here.

Amino acid sequences for entries named in this document (tags omitted).
UniProt P35372, whole entry, looked up: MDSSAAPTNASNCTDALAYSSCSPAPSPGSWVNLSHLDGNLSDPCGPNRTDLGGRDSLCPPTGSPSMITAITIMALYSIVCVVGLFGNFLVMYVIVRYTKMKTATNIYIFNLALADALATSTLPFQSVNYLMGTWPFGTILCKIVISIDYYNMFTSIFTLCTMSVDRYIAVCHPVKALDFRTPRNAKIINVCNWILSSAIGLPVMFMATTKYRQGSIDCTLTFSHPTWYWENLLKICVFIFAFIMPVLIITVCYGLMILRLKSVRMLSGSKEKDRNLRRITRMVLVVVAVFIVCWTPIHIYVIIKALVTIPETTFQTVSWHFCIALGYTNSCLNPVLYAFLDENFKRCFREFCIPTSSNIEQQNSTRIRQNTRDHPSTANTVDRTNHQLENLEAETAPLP

The source of these data is PubChem BioAssay AID651685 (The Scripps Research Institute Molecular Screening Center, 2012).

The assay has as its target Mu-type opioid receptor (Homo sapiens) (UniProt P35372). Kind of assay: mu-delta opioid heterodimer formation enhancers – cell-based, luminescence, dose response, late-stage follow-up (AID 651685). As to conditions: cells, OPRM1-OPRD1 heterodimerization, luminescence complementation.

In general, EC50 refers to the midpoint of the concentration-response curve. `CCOc1ccc(CN2CCC(Nc3cccc4ccccc34)CC2)cc1C#N`: the EC50 is inactive: > 40 µM.
